## Ab-14 light chain CDR variants: yeast mating affinities

Target peptide (SARS-CoV-2 spike, HR2 region): PDVDLGDISGINAS

Each scFv is VH, a 15-residue (Gly4Ser)3 linker, VL, as in the parent Ab-14, and differs from it in the CDRs of the light chain only.
VH: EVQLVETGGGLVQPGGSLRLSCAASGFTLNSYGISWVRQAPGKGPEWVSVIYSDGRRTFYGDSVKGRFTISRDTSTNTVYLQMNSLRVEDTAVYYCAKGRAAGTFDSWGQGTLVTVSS
VL: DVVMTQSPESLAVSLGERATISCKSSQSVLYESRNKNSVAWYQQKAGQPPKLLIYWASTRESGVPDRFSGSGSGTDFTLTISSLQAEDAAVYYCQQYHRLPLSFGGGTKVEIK

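This is the validation round: designs drawn from the data on random variants, tested in the same kind of assay. Several design methods are mixed in this list. Affinity was read by AlphaSeq, a pooled yeast mating assay with surface-displayed partners. Binding brings cells together so that they mate, and sequencing counts the barcode pairs among the diploids. Read counts were normalised to the haploid input and turned into Kd by a linear fit to BCL2-family pairs of known affinity, for each replicate. The assay was run in six technical replicates.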

Each variant is given by its three light chain CDRs, as the data file delimits them; those of the parent are KSSQSVLYESRNKNSVA, WASTRES, QQYHRLPLS.
Values are log10 of the apparent Kd in nM; lower means stronger binding.
A mean of the replicates is given; it leaves out those without a signal.
An entry "no signal" has no value in the source: the pair was not observed among the diploids in any replicate. This suggests poor binding but is not conclusive.
The authors' rule: three or more of the six replicates give a measured affinity, fewer mean a poor binder.

{"CDR-L1": "KVSQSVLYEDRNKNSVA", "CDR-L2": "NASTRMS", "CDR-L3": "QQYHRLPLS", "log10 Kd (nM), mean": "-0.21", "detected": "6 of 6"}
{"CDR-L1": "KFSQMVNSLSVSNSAVA", "CDR-L2": "EMSTRPE", "CDR-L3": "QQYNRLPLS", "log10 Kd (nM), mean": "0.84", "detected": "6 of 6"}
{"CDR-L1": "MIHESMGLMSHKQSSIA", "CDR-L2": "DNSTREE", "CDR-L3": "QQYDRLPLS", "log10 Kd (nM), mean": "2.92", "detected": "2 of 6"}
{"CDR-L1": "QLTWRAFNGDSVMNNVA", "CDR-L2": "DNVHAQY", "CDR-L3": "QQYSRLPFT", "log10 Kd (nM), mean": "0.60", "detected": "6 of 6"}
{"CDR-L1": "KLSQSWLYESRMKNSVA", "CDR-L2": "NASQRES", "CDR-L3": "QQYHRLPLS", "log10 Kd (nM), mean": "-0.07", "detected": "6 of 6"}
{"CDR-L1": "KISQLVNFLGKQKNSVA", "CDR-L2": "QMSTREE", "CDR-L3": "QQYDRLPLS", "log10 Kd (nM), mean": "0.41", "detected": "6 of 6"}
{"CDR-L1": "KSSQSDLGESRNKNSVA", "CDR-L2": "WASTRES", "CDR-L3": "GQYHRLPLS", "log10 Kd (nM), mean": "2.43", "detected": "1 of 6"}
{"CDR-L1": "SLHLYTLTEENNNNSIA", "CDR-L2": "EKSYRAY", "CDR-L3": "QQYSHLPLV", "log10 Kd (nM), mean": "2.24", "detected": "1 of 6"}
{"CDR-L1": "TIGQVFNGESRNRNSVA", "CDR-L2": "QASTRES", "CDR-L3": "QSYDRLPLS", "log10 Kd (nM), mean": "1.10", "detected": "6 of 6"}
{"CDR-L1": "KIEQSVLYESRNKNAVA", "CDR-L2": "NASTRES", "CDR-L3": "QQYHRLPLS", "log10 Kd (nM), mean": "-0.46", "detected": "6 of 6"}
{"CDR-L1": "KLSQSVDYESRNKNSVA", "CDR-L2": "EASTREQ", "CDR-L3": "QQYHRLPLS", "log10 Kd (nM), mean": "0.02", "detected": "6 of 6"}
{"CDR-L1": "HSSPSVLYESRNKNSVA", "CDR-L2": "GASTRES", "CDR-L3": "QQYHRLPLQ", "log10 Kd (nM), mean": "no signal", "detected": "0 of 6"}
{"CDR-L1": "KLSTSWLYGKRNKNSVA", "CDR-L2": "QASQRES", "CDR-L3": "QQYHRLPLS", "log10 Kd (nM), mean": "0.76", "detected": "6 of 6"}
{"CDR-L1": "KISMSYRYESQESNSIA", "CDR-L2": "EMSTREE", "CDR-L3": "QSYHRLPLS", "log10 Kd (nM), mean": "1.69", "detected": "6 of 6"}
{"CDR-L1": "HITYGMMVAGRHSKSIA", "CDR-L2": "QAETRAK", "CDR-L3": "QQYDRLPLM", "log10 Kd (nM), mean": "0.40", "detected": "6 of 6"}
{"CDR-L1": "HIDQQTSYDNGEERAIA", "CDR-L2": "DVTIRDW", "CDR-L3": "QQYARLPLL", "log10 Kd (nM), mean": "1.77", "detected": "6 of 6"}
{"CDR-L1": "HMSMLTLQGMRQRNSVA", "CDR-L2": "QMTTRVN", "CDR-L3": "QQYDRLPLM", "log10 Kd (nM), mean": "0.66", "detected": "6 of 6"}
{"CDR-L1": "MISQLYNMGQFAINSVA", "CDR-L2": "QASERNN", "CDR-L3": "QQYDRLPLM", "log10 Kd (nM), mean": "1.81", "detected": "2 of 6"}
{"CDR-L1": "MISQLYNMGSFAINSVA", "CDR-L2": "QASQRCE", "CDR-L3": "QQYDRLPLM", "log10 Kd (nM), mean": "1.05", "detected": "6 of 6"}
{"CDR-L1": "LISQSVLYESRDKNSVA", "CDR-L2": "NASTRLS", "CDR-L3": "QQYHRLPLS", "log10 Kd (nM), mean": "0.08", "detected": "6 of 6"}
{"CDR-L1": "KIGATLNTLSHKQNNVA", "CDR-L2": "DLVEREN", "CDR-L3": "QQYFRLPLS", "log10 Kd (nM), mean": "0.09", "detected": "6 of 6"}
{"CDR-L1": "SMETHSQDNRLDWSAVA", "CDR-L2": "EAQTIYQ", "CDR-L3": "QQYARLPLS", "log10 Kd (nM), mean": "no signal", "detected": "0 of 6"}
{"CDR-L1": "KFSQPVLYESRNKNSVA", "CDR-L2": "WASTRES", "CDR-L3": "QQYHRLPLS", "log10 Kd (nM), mean": "1.04", "detected": "6 of 6"}
{"CDR-L1": "MIAESVGYQSRQKNSVA", "CDR-L2": "DNSTRES", "CDR-L3": "QCYDRLPLS", "log10 Kd (nM), mean": "1.35", "detected": "2 of 6"}
{"CDR-L1": "NFPQEVMYESHFKNNVA", "CDR-L2": "QTSTREP", "CDR-L3": "QQYDHLPLS", "log10 Kd (nM), mean": "0.34", "detected": "6 of 6"}
{"CDR-L1": "KSSQSVLYESRNHNSVA", "CDR-L2": "WASEREV", "CDR-L3": "QQYHRLPLS", "log10 Kd (nM), mean": "1.55", "detected": "6 of 6"}
{"CDR-L1": "NISIEDYPENNFANNVA", "CDR-L2": "STDCRCD", "CDR-L3": "QQYFMLPLM", "log10 Kd (nM), mean": "1.50", "detected": "6 of 6"}
{"CDR-L1": "KSMQTVLYEDRNKNSVA", "CDR-L2": "WASTRES", "CDR-L3": "QQYHRLPRS", "log10 Kd (nM), mean": "no signal", "detected": "0 of 6"}
{"CDR-L1": "KLDISHLYESRNWNSVA", "CDR-L2": "NASTREE", "CDR-L3": "QQYHRLPLS", "log10 Kd (nM), mean": "-0.05", "detected": "6 of 6"}

The first 2 variants above that were never detected:

{"CDR-L1": "HSSPSVLYESRNKNSVA", "CDR-L2": "GASTRES", "CDR-L3": "QQYHRLPLQ", "log10 Kd (nM), mean": "no signal", "detected": "0 of 6"}
{"CDR-L1": "SMETHSQDNRLDWSAVA", "CDR-L2": "EAQTIYQ", "CDR-L3": "QQYARLPLS", "log10 Kd (nM), mean": "no signal", "detected": "0 of 6"}

Of ten entries with the parent sequence, four were seen in most replicates (averages 0.34 to 2.37), three in one and three in none, so single entries are noisy.
Values of this round are not directly comparable with the first-round values of the same sequences.
Three control strains display no target. For all light chain designs, 4% of the pairings with them gave a signal, with a median of 2.64 and one signal in twenty below 1.59, so weak values seen in few replicates may be background.

Values reported by Li et al. 2023, doi:10.1038/s41467-023-39022-2 (FLAb copy).